For 2 molecules, inhibition results are on record in PubChem BioAssay AID504840 (Johns Hopkins Ion Channel Center, 2011).

Protein sequences, listed by entry. Tags and fused reporters are not part of them. Lines headed by an entry give the natural chain unless they say otherwise; changes in a name come on top.
UniProt Q9GZV3, whole entry, stated change not applied: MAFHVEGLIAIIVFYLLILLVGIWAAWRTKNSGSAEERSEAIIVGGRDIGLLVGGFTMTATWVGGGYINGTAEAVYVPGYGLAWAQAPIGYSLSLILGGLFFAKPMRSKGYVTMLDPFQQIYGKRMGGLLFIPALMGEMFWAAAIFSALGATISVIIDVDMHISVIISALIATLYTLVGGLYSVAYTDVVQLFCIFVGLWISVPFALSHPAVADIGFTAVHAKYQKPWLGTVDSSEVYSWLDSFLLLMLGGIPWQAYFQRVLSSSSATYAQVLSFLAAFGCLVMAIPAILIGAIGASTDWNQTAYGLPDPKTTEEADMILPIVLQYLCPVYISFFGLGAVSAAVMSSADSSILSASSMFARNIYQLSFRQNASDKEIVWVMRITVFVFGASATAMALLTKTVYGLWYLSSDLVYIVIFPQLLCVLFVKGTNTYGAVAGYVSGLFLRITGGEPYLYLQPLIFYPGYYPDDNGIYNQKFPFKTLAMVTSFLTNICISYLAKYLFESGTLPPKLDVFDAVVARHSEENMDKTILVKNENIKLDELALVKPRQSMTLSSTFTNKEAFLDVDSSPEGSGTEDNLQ

This is a selection; strong and weak results do not stand in their true shares. Measured potencies and affinities stand elsewhere. The source made the active and inactive calls.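 Rule for the calls: active = inhibition of the choline-evoked signal at any tested dose together with a fitted dose-response curve; inactive = no inhibition at any dose or no curve.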

The test has as its target High affinity choline transporter 1 (Homo sapiens) (UniProt Q9GZV3). Kind of test: CHT inhibitors, dose response, cell-based, 5-point CRC, membrane potential dye (AID 504840).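 Note: 0% = buffer-only response and 100% = EC90 choline response.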 The following applies: HEK293-CHT, choline-induced depolarization, CHT with LV-to-AA double alanine mutation; at 37 µM (top of the series).
Turning to `O=[N+]([O-])c1cc([N+](=O)[O-])c(Nc2ccccn2)c([N+](=O)[O-])c1`, the inhibition (usually the share of the control response that was lost under treatment) is inactive: 45.4%. As to `CC1=NCCc2c1[nH]c1ccccc21.O=[N+]([O-])c1cc([N+](=O)[O-])c(O)c([N+](=O)[O-])c1`, the inhibition is inactive: 42.5%.
